This passage reports IC50 results from patent US12583820B2, “Broad spectrum antivirals against coronavirus” (priority 2020, dated 2026).

The target of this assay is 3CLpro of SARS-CoV-2 (Severe acute respiratory syndrome coronavirus 2, UniProt P0DTD1). The experiment in a line: biochemical.
For orientation: IC50 means the point on the concentration scale where inhibition reaches its midpoint. The low end stands for higher potency, the high end for lower potency. For the compound `[2H]C([2H])(OC(=O)N[C@@H](CC(C)C)C(=O)N[C@@H](C[C@@H]1CCNC1=O)C(O)S(=O)(=O)[O-])c1ccc(F)cc1.[Na+]` (stereo partly drawn) [Compound 20c, Sodium (2S)-2-((S)-2-((((4-fluorophenyl)methoxy-d2)carbonyl)amino)-4-methylpentan amido)-1-hydroxy-3-((S)-2-oxopyrrolidin-3-yl)propane-1-sulfonate], the IC50 was 360 nM. In other words, the sub-micromolar range.
As for `CC(C)C[C@H](NC(=O)OCC1CCC(F)(F)CC1)C(=O)N[C@@H](C[C@@H]1CCNC1=O)C(O)S(=O)(=O)O` (stereo partly drawn) [Compound 7j (Scheme 1), sodium (2S)-2-((S)-2-((((4,4-difluorocyclohexyl)methoxy)carbonyl)amino)-4-methylpentan-amido)-1-hydroxy-3-((S)-2-oxopyrrolidin-3-yl)propane-1-sulfonate], the figure is 1100 nM.
As for `[2H]C([2H])(OC(=O)N[C@@H](CC(C)C)C(=O)N[C@H](C=O)C[C@@H]1CCNC1=O)c1ccc(F)cc1` [Compound 20b, (4-Fluorophenyl)methyl-d2 ((S)-4-methyl-1-oxo-1-(((S)-1-oxo-3-((S)-2-oxopyrrolidin-3-yl)propan-2-yl)amino)pentan-2-yl)carbamate], the figure is 350 nM; as for `CC(C)C[C@H](NC(=O)OCc1ccc(F)cc1)C(=O)N[C@H](C=O)C[C@@H]1CCNC1=O` [Compound 19b, 4-Fluorobenzyl ((S)-4-methyl-1-oxo-1-(((S)-1-oxo-3-((S)-2-oxopyrrolidin-3-yl)propan-2-yl)amino)pentan-2-yl)carbamate], 360 nM.
As for `CC(C)C[C@H](NC(=O)OC1CCC(F)(F)CC1)C(=O)N[C@@H](C[C@@H]1CCNC1=O)C(O)S(=O)(=O)[O-].[Na+]` (stereo partly drawn) [Compound 7h (Scheme 1), sodium (2S)-2-((S)-2-((((4,4-difluorocyclohexyl)oxy)carbonyl)amino)-4-methylpentan-amido)-1-hydroxy-3-((S)-2-oxopyrrolidin-3-yl)propane-1-sulfonate], the figure is 1600 nM.
